Patent publication US4634706A, “Griseolic acid derivatives, and their use as enzyme inhibitors” (Sankyo Company Limited, priority 1983, dated 1987)

Tested on: cerebral blood flow
Experiment: Improving cerebral blood flow
Assay type: in vivo, rabbit
Source text: The "duration (T1/2)" is the time in minutes required for the increase in cerebral blood flow to reduce by one half.

SMILES: COc1ccc(Cc2nccc3cc(OC)c(OC)cc23)cc1OC [Papaverine, papaverine]
- Increase in cerebral blood flow (Vp), ratio to papaverine 1 mg/kg: 1.0
- Duration (T 1/2) (1 mg/kg): 2.4 min
